Key:
[1] = target: Low molecular weight phosphotyrosine protein phosphatase, ACP1 (Homo sapiens) (UniProt P24666); assay: Effect on human cytoplasmic protein tyrosine phosphatase A assessed as change in enzyme activity at 100 uM at pH 7
[2] = target: Low molecular weight phosphotyrosine protein phosphatase, ACP1 (Homo sapiens) (UniProt P24666); assay: Effect on human cytoplasmic protein tyrosine phosphatase A assessed as change in enzyme activity at 100 uM at pH 5
[3] = target: Low molecular weight phosphotyrosine protein phosphatase, ACP1 (Homo sapiens) (UniProt P24666); assay: Effect on human cytoplasmic protein tyrosine phosphatase B assessed as change in enzyme activity at 100 uM at pH 5

Activity [1]: -46%
Activity [2]: 1%
Activity [3]: -6%
Structure (SMILES): O=C(O)C(O)Cc1ccccn1 (stereo not drawn)
